Assay [1] deals with T1, S1P1 (Homo sapiens, UniProt P21453). The experiment in a line: β-arrestin recruitment after S1P1 receptor activation, S1P1 overexpressing cell line (luminescence). Format: cell-based. The note with it: read-out: β-arrestin EC50. Background: Recruitment of arrestin is a read-out of receptor activation apart from second messengers.
Assay [2] has as its target T1, S1P1. The experiment in a line: Internalization (endosome formation) after S1P1 receptor activation, S1P1 overexpressing cell line (luminescence). The note with it: read-out: Internalization EC50, endosome formation by internalization. Format: cell-based.

By UniProt entry, the sequences of proteins in these tests, tags left out. Where a name states a change or a piece, a line headed by the entry shows the natural chain unless it says otherwise.
UniProt P21453: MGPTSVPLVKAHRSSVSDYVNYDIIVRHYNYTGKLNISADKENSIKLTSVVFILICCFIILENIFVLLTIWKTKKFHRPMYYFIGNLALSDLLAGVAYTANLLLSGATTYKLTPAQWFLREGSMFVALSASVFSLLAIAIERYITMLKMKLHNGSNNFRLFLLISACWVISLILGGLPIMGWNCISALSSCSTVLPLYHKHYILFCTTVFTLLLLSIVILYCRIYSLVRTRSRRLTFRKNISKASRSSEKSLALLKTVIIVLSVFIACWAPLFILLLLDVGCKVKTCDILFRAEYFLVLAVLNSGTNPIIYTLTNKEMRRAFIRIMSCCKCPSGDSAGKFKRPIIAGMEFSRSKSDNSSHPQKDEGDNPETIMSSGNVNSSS

In general, EC50 refers to the midpoint of the concentration-response curve.

Regarding “Methyl 1-(4-(2-(3-isocyano-4-isopropoxyphenyl)-1,3-selenazole-5-yl)benzyl)azetidine-3-carboxylate”, the EC50 on S1P1 [1] came to 3.64 nM; at S1P1 [2], 0.87 nM.

The record behind these values is patent publication US20260355161A1, “NOVEL HETEROCYCLYL-PHENYL-METHYLAMINE DERIVATIVES, PREPARATION METHOD THEREOF, AND USE THEREOF IN PREVENTING, ALLEVIATING, OR TREATING MULTIPLE SCLEROSIS” (Cureverse Incorporated, priority 2022, published 2026).
